Reference: ChEMBL document CHEMBL3352010, “Synthesis and Pharmacology of a Novel κ Opioid Receptor (KOR) Agonist with a 1,3,5-Trioxazatriquinane Skeleton” (ACS Med Chem Lett, 2014)

Amino acid sequences for entries named in this document (tags omitted). A change or cut given only in a name is not applied to a line headed by its entry.
UniProt P41144: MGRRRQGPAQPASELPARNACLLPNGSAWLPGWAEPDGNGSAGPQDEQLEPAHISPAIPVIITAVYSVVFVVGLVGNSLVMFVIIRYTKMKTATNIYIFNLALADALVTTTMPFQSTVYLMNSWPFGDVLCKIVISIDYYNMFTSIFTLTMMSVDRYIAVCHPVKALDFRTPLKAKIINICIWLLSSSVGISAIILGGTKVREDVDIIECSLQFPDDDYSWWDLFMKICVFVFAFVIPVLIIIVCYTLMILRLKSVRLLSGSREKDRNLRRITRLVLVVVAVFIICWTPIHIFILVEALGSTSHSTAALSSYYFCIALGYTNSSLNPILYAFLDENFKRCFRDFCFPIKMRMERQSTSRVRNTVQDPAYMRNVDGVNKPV

Biological target: Kappa-type opioid receptor (Cavia porcellus, UniProt P41144)
Test: Displacement of [3H]U69593 from kappa opioid receptor in guinea pig cerebellum

## CN(C(=O)Cc1ccc(Cl)c(Cl)c1)C1CCCCC1N1CCCC1 (stereo unspecified)
  Ki: 1.67 nM
